Data on eleven compounds can be found in patent US12590099B2 (dated 2026).

The chains behind the UniProt entries cited, without tags or fusion partners. Where a name states a change or a piece, a line headed by the entry shows the natural chain unless it says otherwise.
UniProt O15379: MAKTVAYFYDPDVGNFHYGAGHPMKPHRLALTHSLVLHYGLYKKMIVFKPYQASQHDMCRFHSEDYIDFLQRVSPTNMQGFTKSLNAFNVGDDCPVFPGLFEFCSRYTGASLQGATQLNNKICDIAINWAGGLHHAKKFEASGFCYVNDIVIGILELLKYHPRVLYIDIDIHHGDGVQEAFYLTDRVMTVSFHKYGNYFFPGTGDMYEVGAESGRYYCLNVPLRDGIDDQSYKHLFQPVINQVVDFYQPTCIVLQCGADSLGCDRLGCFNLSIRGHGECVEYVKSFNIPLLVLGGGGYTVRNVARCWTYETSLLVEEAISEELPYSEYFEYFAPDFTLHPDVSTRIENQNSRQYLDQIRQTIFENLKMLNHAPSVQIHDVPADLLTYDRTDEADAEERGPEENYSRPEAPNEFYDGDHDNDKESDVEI

Molecules are shown by their SMILES.

The test concerns the target Recombinant human HDAC3/SMRT heterodimer (Homo sapiens, UniProt O15379). Description: Human HDAC enzyme inhibitor Fluor-de-Lys assay, HDAC3/SMRT. The settings on record: HDAC3 IC50 (nM).
Where [1] appears, read: recombinant human HDAC3/SMRT, Fluor-de-Lys assay.

Turning to `CCC(=O)CCCCC[C@H](NC(=O)[C@H]1CC12CCN(C)CC2)c1ncc(-c2cnc(-n3cc(C)cn3)nc2)[nH]1` [Compound 257], the half-inhibitory concentration (IC50) under setting [1] amounted to 49.7 nM.

For `CCC(=O)CCCCC[C@H](NC(=O)[C@H]1CC12CCN(C)CC2)c1ncc(-c2ccc(C)nc2OC)[nH]1` [Compound 268], the IC50 under setting [1] stood at 3.07 nM.

On to `CCC(=O)CCCCC[C@H](NC(=O)[C@H]1CC12CCN(C)CC2)c1ncc(-c2ccnc(N3CCOCC3)c2F)[nH]1` [Compound 261], for which the IC50 under setting [1] came out at 16.4 nM.

Take `CCC(=O)CCCCC[C@H](NC(=O)[C@H]1CC12CCN(C)CC2)c1ncc(-c2cnc3cccnc3c2)[nH]1` [Compound 67]: the IC50 was found to be 14.2 nM.

Consider `CCOc1ncc(-c2cnc([C@H](CCCCCC(=O)CC)NC(=O)[C@H]3CC34CCN(C)CC4)[nH]2)cn1` [Compound 266], for which, under setting [1], the IC50 was 74.1 nM.

For the compound `CCC(=O)CCCCC[C@H](NC(=O)[C@H]1CC12CCN(C)CC2)c1ncc(-c2cnc3cccnc3c2)[nH]1` [Compound 259], the IC50 under setting [1] worked out at 18.3 nM.

`CCC(=O)CCCCC[C@H](NC(=O)[C@H]1CC12CCN(C)CC2)c1ncc(-c2ccc(C(=O)NC3CCOC3)cc2)[nH]1` (some centres unmarked) [Compound 258]: the IC50 under setting [1] came out at 3.35 nM.

With `CCC(=O)CCCCC[C@H](NC(=O)[C@H]1CC12CCN(C)CC2)c1ncc(-c2ccn3ncnc3c2)[nH]1` [Compound 267], the half-inhibitory concentration (IC50) under setting [1] is 34.3 nM.

As to `CCC(=O)CCCCC[C@H](NC(=O)[C@H]1CC12CCN(C)CC2)c1ncc(-c2ccc(-c3cccnc3)nc2)[nH]1` [Compound 262], the IC50 under setting [1] turned out to be 3.36 nM.

In the case of `CCC(=O)CCCCC[C@H](NC(=O)[C@H]1CC12CCN(C)CC2)c1ncc(-c2cn(C)c3ccccc23)[nH]1` [Compound 264], under setting [1], the IC50 was under 1.5 nM.

On to `CCC(=O)CCCCC[C@H](NC(=O)[C@H]1CC12CCN(C)CC2)c1ncc(-c2ccc(-n3nc(C)cc3C)cc2)[nH]1` [Compound 260], for which the IC50 under setting [1] was determined as 5.31 nM.
